Assay results from article PMC7383964 (Chemmedchem, 2020).

By UniProt entry, the sequences of proteins in these tests, tags left out. Where a name states a change or a piece, a line headed by the entry shows the natural chain unless it says otherwise.
UniProt P35372, whole entry, looked up: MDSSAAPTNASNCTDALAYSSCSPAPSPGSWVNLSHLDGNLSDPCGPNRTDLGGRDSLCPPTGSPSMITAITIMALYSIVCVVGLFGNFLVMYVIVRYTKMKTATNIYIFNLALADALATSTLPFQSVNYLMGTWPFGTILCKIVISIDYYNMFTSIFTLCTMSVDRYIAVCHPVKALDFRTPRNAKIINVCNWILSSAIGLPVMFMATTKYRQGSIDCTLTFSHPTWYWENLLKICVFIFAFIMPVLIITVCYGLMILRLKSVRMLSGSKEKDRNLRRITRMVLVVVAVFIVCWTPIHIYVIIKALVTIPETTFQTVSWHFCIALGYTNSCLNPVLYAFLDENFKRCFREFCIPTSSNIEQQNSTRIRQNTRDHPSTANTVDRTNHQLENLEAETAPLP
UniProt P41145: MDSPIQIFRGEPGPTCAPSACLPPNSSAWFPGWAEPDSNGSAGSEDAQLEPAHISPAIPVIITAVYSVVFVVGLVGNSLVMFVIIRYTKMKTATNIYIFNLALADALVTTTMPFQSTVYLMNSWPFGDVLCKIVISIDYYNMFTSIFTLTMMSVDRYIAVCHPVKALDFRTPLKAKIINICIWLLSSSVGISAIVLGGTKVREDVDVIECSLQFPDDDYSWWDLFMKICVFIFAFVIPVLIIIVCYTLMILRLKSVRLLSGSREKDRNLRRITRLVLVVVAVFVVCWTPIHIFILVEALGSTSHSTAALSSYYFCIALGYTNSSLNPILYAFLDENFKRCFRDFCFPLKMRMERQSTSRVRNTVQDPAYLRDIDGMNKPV

Assays:
[1] = target: T1, μ‐OR (Homo sapiens, UniProt P35372); conditions: read-out: K i μ, cited from earlier work
[2] = system: κ‐OR; conditions: read-out: K i κ, cited from earlier work
[3] = system: δ‐OR; conditions: read-out: K i δ, cited from earlier work
[4] = target: human κ‐OR (Homo sapiens, UniProt P41145); assay: Radioligand competition binding with [^3H]diprenorphine, membranes of transiently transfected HEK293T cells; conditions: for Ki: read-out: K i κ, [^3H]diprenorphine, HEK293T membranes, mean ±SEM of 3 to 11 experiments in triplicate
[5] = target: human δ‐OR (Homo sapiens, UniProt P41143); assay: as above; conditions: for Ki: read-out: K i δ, [^3H]diprenorphine, HEK293T membranes, mean ±SEM of 3 to 11 experiments in triplicate
[6] = target: T1, μ‐OR; assay: as above; conditions: for Ki: read-out: K i μ, [^3H]diprenorphine, HEK293T membranes, mean ±SEM of 3 to 11 experiments in triplicate; for Selectivity μ/δ / Selectivity μ/κ: subtype selectivity for μ‐OR expressed as ratio of K i values
[7] = target: T1, μ‐OR; assay: Literature binding affinities of known ligands; conditions: ratio of K i values reported by Derrick et al.
[8] = Microsomal stability assay; conditions: rat liver microsomes 1 mg protein/mL, NADPH, 37 °C; for Intrinsic clearance: Table 3
[9] = target: T1, μ‐OR; assay: IP accumulation assay (IP‐One) for G‐protein mediated signaling; conditions: for IC50: read-out: IC50 for inhibition of DAMGO activity, IP accumulation, antagonist mode, DAMGO at EC80 concentration of 30 nM
[10] = target: T1, μ‐OR; assay: Radioligand depletion assay (test on covalent blocking of the receptor); conditions: preincubation 60 min 37 °C, 9 b 60 nM, 16 b 100 nM, four washes, then [^3H]diprenorphine binding; three experiments
[11] = system: HEK293T cells; assay: Test on cytotoxicity (cell number after 24 h); conditions: 100 nM, n=6, mean±SEM
[12] = target: T1, μ‐OR; assay: β‐arrestin‐2 recruitment (PathHunter assay); conditions: for Functional property, β‐arrestin‐2 recruitment: agonist mode, HEK‐293 cells with EA‐tagged β‐arrestin‐2 and μ‐OR‐PK1; for IC50: read-out: IC50 for inhibition of DAMGO activity, arrestin recruitment, antagonist mode, DAMGO 1 μM
[13] = agonist mode, HEK‐293T with μ‐OR and Gαqi

SMILES	Ki [1] [µM]	Ki [2] [µM]	Ki [4] [µM]	Ki [5] [µM]	Ki [6] [µM]	Selectivity μ/δ [6]	Selectivity μ/κ [6]	other results
COc1ccc2c3c1OC1C4(OC)CCC5(CC4COCc4ccc6ccccc6c4)C(C2)N(CC2CC2)CCC315 (stereo not shown)	0.00187	0.00074	–	–	–	–	–	–
COc1ccc2c3c1OC1C4(OC)CCC5(CC4COCc4ccc(-c6ccccc6)cc4)C(C2)N(CC2CC2)CCC315 (stereo not shown)	0.00191	0.0258	–	–	–	–	–	Ki [3]: 1.75 µM
COC(=O)/C=C/C(=O)N[C@@H]1CC[C@@]2(O)[C@H]3Cc4ccc(O)c5c4[C@@]2(CCN3CC2CC2)[C@H]1O5 [listing 1 of 2 here]	–	–	0.01	0.026	0.0015	–	–	Ki ([1]; as reported by Derrick et al.): 0.0004 µM
COC(=O)/C=C/C(=O)N[C@@H]1CC[C@@]2(O)[C@H]3Cc4ccc(O)c5c4[C@@]2(CCN3CC2CC2)[C@H]1O5 [listing 2 of 2 here]	–	–	–	–	–	–	–	Factor by which K i is increased under the authors' assay conditions, κ‐OR ([4]; own K i versus K i of ref 34): 11; Factor by which K i is increased under the authors' assay conditions, δ‐OR ([5]; own K i versus K i of ref 34): 3.5; Factor by which K i is increased under the authors' assay conditions, μ‐OR ([6]; own K i versus K i of ref 34): 4; Ki ([2]; as reported by Derrick et al.): 0.0009 µM
CO[C@]12CC[C@@]3(C[C@@H]1C(C)(C)O)[C@H]1Cc4ccc(O)c5c4[C@@]3(CCN1CC1CC1)[C@H]2O5	0.00014	0.002	–	–	–	–	–	Ki [3]: 0.00073 µM
COc1ccc2c3c1OC1C4(OC)CCC5(CC4CNC(=O)N=Nc4ccccc4)C(C2)N(CC2CC2)CCC315 (stereo not shown)	–	–	0.019	0.03	0.0023	13	8.3	–
COC12CCC3(CC1CNC(=O)C=Cc1ccccc1)C1Cc4ccc(O)c5c4C3(CCN1CC1CC1)C2O5 (stereo not shown)	–	–	–	–	–	–	–	Ki ([3]; as reported by Derrick et al.): 0.0007 µM; Selectivity μ/δ [7]: 1; Selectivity μ/κ [7]: 4; Ki ([1]; as reported by Derrick et al.): 0.0007 µM; Ki ([2]; as reported by Derrick et al.): 0.0026 µM
COc1ccc2c3c1OC1C4(OC)CCC5(CC4COc4ccccc4)C(C2)N(CC2CC2)CCC315 (stereo not shown)	0.0144	0.00015	–	–	–	–	–	Ki [3]: 0.0893 µM
COc1ccc2c3c1OC1C4(OC)CCC5(CC4CNC(=O)N=Nc4ccc(Br)cc4)C(C2)N(CC2CC2)CCC315 (stereo not shown)	–	–	0.01	0.028	0.0013	22	7.7	–
COc1ccc2c3c1OC1C4(OC)CCC5(CC4CNC(=O)C=Cc4ccc(F)cc4)C(C2)N(CC2CC2)CCC315 (stereo not shown)	–	–	0.025	0.058	0.0033	18	7.6	Half‐life [8]: 4.2 ± 1.57 h; Intrinsic clearance (CL’ int) [8]: 28 ± 5 µL/min/mg; Intrinsic clearance [8]: 28 ± 5 µL/min/mg; Functional property, G‐protein mediated signaling (IP accumulation) [9, 13]: neutral antagonist; IC50 [9]: 0.0092 µM; Covalent blocking of the radioligand binding site [10]: no blocking of the radioligand binding site; Cell density relative to the effect of vehicle (DMSO) [11]: 106±6%; Functional property, β‐arrestin‐2 recruitment [12]: neutral antagonist; IC50 [12]: 0.023 µM
COc1ccc(N=NC(=O)NCC2CC34CCC2(OC)C2Oc5c(OC)ccc6c5C23CCN(CC2CC2)C4C6)cc1 (stereo not shown)	–	–	0.011	0.063	0.004	16	2.8	–
COc1ccc2c3c1OC1C4(OC)CCC5(CC4CNC(=O)C=Cc4ccccc4)C(C2)N(CC2CC2)CCC315 (stereo not shown)	–	–	0.018	0.054	0.0049	11	3.7	–
COc1ccc2c3c1OC1C4(OC)CCC5(CC4CNC(=O)N=Nc4ccc(F)cc4)C(C2)N(CC2CC2)CCC315 (stereo not shown)	–	–	0.01	0.036	0.0015	24	6.7	Half‐life [8]: 2.77 ± 0.267 h; Intrinsic clearance (CL’ int) [8]: 42 ± 4 µL/min/mg; Intrinsic clearance [8]: 42 ± 4 µL/min/mg; Functional property, G‐protein mediated signaling (IP accumulation) [9, 13]: weak partial agonist effect; Efficacy for G‐protein mediated signaling ([9]; agonist mode, HEK‐293T with μ‐OR and Gαqi, relative to DAMGO (100 %)): 19%; IC50 [9]: 0.02 µM; Covalent blocking of the radioligand binding site [10]: no blocking of the radioligand binding site; Cell density relative to the effect of vehicle (DMSO) [11]: 92±6%; Functional property, β‐arrestin‐2 recruitment [12]: antagonist properties; IC50 [12]: 0.022 µM

Read-outs that look alike come from different tables or passages of the source.
